Shown is part of a subset that was picked to be rich in hits.
GIV Gai3 FP: inhibitors of GIV peptide binding to Galpha-i3, primary screen, biochemical, fluorescence polarization, FITC-GIV GBA peptide, rat Galphai3 | 90 min; hits give low values; scaled: aluminum fluoride 0%, vehicle 100% | percent of control (FP), % (concentration not given with the values) | 210,000 compounds, 0.42% hits | AID 1224905, 2016;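 active = replicate mean at 85% of control or lower, very high polarization wells dropped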;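 also: wells of about 15 µL received 100 nL stock; the first replicate is given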
GIV Gai FP conf: inhibitors of GIV peptide binding to Galpha-i3, confirmation, biochemical, fluorescence polarization, FITC-GIV peptide, rat Galphai3; shares compounds with GIV Gai3 FP; hits give low values; fluorescence polarization, mP at 100 µM; 580 tested, 38% active;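 active means inhibition score of 15 or more, meaning 100 minus mean polarization as percent of control over three replicates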;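 further: lower mP means peptide displaced from Galphai3 so more inhibition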
GIV Gai AS conf: inhibitors of GIV binding to Galpha-i3, confirmation, orthogonal assay for GIV-Galpha-i inhibitor project, biochemical, AlphaScreen, His-GIV, GST-Galphai3; AlphaScreen counts at 100 µM; AID 1259351, 2017; shares compounds with GIV Gai3 FP; 580 tested, 39% active; purified proteins, 90 min; hits give low values;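 active means inhibition score at or above a set limit, where the score is 100 minus the three-replicate mean percent of control signal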
Each line names hits and unclear results; the compound was inactive in the other large screens (follow-up assays come after a bar, where they were run).

N#CC(C#N)=Cc1ccc(-c2ccccc2)o1	GIV Gai3 FP -0.4
CSc1ccc(C=C(C#N)C#N)s1	none
Cc1ccc(C=C(C#N)C#N)o1	none
O=C(CCc1nc(C2=CCN(Cc3ccc(Cl)cc3)CC2)no1)Nc1cccc(Cl)c1	none
CCCCOC(=O)COc1cc(C)cc2oc(=O)c3c(c12)CCCC3	none
NC(=O)c1ccccc1NC(=O)c1cccn(Cc2ccc(Br)cc2)c1=O	none
C#CCSc1nc2ccccc2c(=O)n1-c1ccccc1	none
CCCCN(C(=O)c1ccccc1)C1=CC2CCC(C1)N2C (stereo not given)	none
CCOc1ccc(C2C(C#N)=C(N)Oc3c2c(=O)oc2ccccc32)cc1OCC (stereo not given)	none
CCN1C(=O)NC(=O)/C(=C\c2cn(CC(=O)N3CCCC3)c3ccccc23)C1=O	none
COc1ccc(N2C(=O)NC(=O)/C(=C\c3cn(CC(=O)Nc4ccccc4)c4ccccc34)C2=O)cc1	none
CCOc1ccc(N2C(=O)NC(=O)/C(=C/c3cn(CC(=O)Nc4ccccc4)c4ccccc34)C2=O)cc1	GIV Gai3 FP -4.9
O=C(CN1C(=O)CN=C(c2ccccc2)c2cc(Br)ccc21)NNc1c2ccccc2nc2ccccc12	none
C1=C(c2c[nH]c3ccccc23)CCNC1	GIV Gai3 FP -23
c1ccc2c(C3=NCCO3)c[nH]c2c1	none
O=c1ccc2[nH]cc(C3=CCNCC3)c2[nH]1	none
O=C(Cc1ccccc1)N1CCN(Cc2cc(=O)n3nc(-c4ccccc4)sc3n2)CC1	none
CC(Cc1ccccc1)[n+]1cc(/N=C(/N)[O-])on1 (stereo not given)	none
COC(=O)Cn1cc(C=C2C(=O)N(C)C(=O)N(C)C2=O)c2ccccc21	GIV Gai3 FP -2.1
O=C1NC(=O)N(c2ccccc2F)C(=O)/C1=C/c1cn(CC(=O)N2CCOCC2)c2ccccc12	none
CCN1C(=O)NC(=O)/C(=C\c2cn(CC(=O)O)c3ccccc23)C1=O	none
Cc1ccc(NC(=O)CCc2nc(C3=CCN(Cc4cccc(Cl)c4)CC3)no2)cc1F	none
CN1CCc2c(C#N)c(N)n(N)c(=S)c2C1	GIV Gai3 FP -103
CN1CCc2c(C#N)c(Cl)nc(NCc3ccccc3)c2C1	none
O=C(NN1S(=O)(=O)c2ccccc2S1(=O)=O)c1nsnc1NCCCl	none
Cn1c(=O)c2ncnnc2n(C)c1=O	GIV Gai3 FP 77 | GIV Gai FP conf 58 | GIV Gai AS conf inactive
NCCc1csc2c1CCCC2	none
COCC1=C(C(=O)OCc2ccccc2)C2(C(=O)Nc3ccccc32)C(C(=O)OC)=C(N)O1 (stereo not given)	none
O=C1NC(=O)N(c2ccccc2)C(=O)/C1=C/c1ccco1	none
O=C1NC(=S)NC(=O)C1=Cc1ccco1	GIV Gai3 FP 73 | GIV Gai FP conf 57 | GIV Gai AS conf 5695
CN1C(=O)NC(=O)/C(=C/c2ccco2)C1=O	none
COc1cccc(C(c2c(O)[nH]c(=O)[nH]c2=O)N2CCCC(C)C2)c1OC (stereo not given)	none
CCC(Cc1cc(OC)c(C)cc1OC)NC(=O)c1ccc(F)c(F)c1 (stereo not given)	none
Cc1ccc(/C=C2/C(=O)C3CCN2CC3)cc1	none
O=C1NC(=O)N(Cc2ccccc2)C(=O)/C1=C/c1ccc(O)cc1	none
C=CCN1C(=O)NC(=O)/C(=C\c2ccccc2)C1=O	none
O=C1NC(=O)N(Cc2ccccc2)C(=O)/C1=C\c1ccccc1	GIV Gai3 FP 15 | GIV Gai FP conf 31 | GIV Gai AS conf 14998
Cn1c(=O)n(C)c2cc(CNCCc3ccc(Cl)cc3)ccc21	none
CCc1ccc(NC(=O)N(Cc2ccco2)C2CCN(Cc3ccccc3)CC2)cc1	none
N#CC(C#N)=Cc1sccc1C1OCCO1	none

Screening data: PubChem, ICCB-Longwood Screening Facility, Harvard Medical School
